The values below come from publication PMC12813979.

Assay [1] has as its target RbBP5 peptide (R5P). Briefly: BLI; 5 nM biotinylated R5P immobilised on streptavidin sensors; ΔN-WDR5 0.11-9.0 µM in the wells, no ARTEVY; 150 mM KCl, 20 mM Tris-HCl, 1 mM TCEP, 1 mg/mL BSA, pH 7.5; global fit of kon and koff, KD derived indirectly from them; triplicates. For orientation: In BLI a coated tip is dipped into the sample, and binding shifts an interference pattern.

The target in assay [2] is RbBP5 peptide (R5P). Briefly: BLI; 5 nM biotinylated R5P immobilised on streptavidin sensors; WDR5 0.11-9.0 µM in the wells with 20 µM ARTEVY spiked in; 150 mM KCl, 20 mM Tris-HCl, 1 mM TCEP, 1 mg/mL BSA, pH 7.5; global fit of kon and koff, KD derived indirectly from them; triplicates.

Broadly, the Kd is a measure of binding affinity in units of concentration.

As for “N-terminus truncated WDR5, WDR5 23-334 (from UniProt P61964 23-334) (domain or fragment)”, the dissociation constant (Kd) in the assay with RbBP5 peptide (R5P) [1] came out at 1.5 µM.

Turning to “WD40 repeat protein 5 (WDR5), full-length (from UniProt P61964 1-334) (natural protein)”, the dissociation constant (Kd) in the assay with RbBP5 peptide (R5P) [2] stood at 1.4 µM.
